Measured values taken from article PMC4324447 (Journal of Medicinal Chemistry, 2014).

The chains behind the UniProt entries cited, without tags or fusion partners.
UniProt P32245, whole entry L106P: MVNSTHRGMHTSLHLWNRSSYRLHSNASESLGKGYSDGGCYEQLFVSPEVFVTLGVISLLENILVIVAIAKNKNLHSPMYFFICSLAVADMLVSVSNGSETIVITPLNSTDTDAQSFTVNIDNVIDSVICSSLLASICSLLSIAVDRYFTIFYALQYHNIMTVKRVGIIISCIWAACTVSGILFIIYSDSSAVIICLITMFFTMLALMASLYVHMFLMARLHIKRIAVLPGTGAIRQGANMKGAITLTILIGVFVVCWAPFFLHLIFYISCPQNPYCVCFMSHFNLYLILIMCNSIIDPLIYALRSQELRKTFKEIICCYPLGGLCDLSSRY
UniProt P32245, whole entry: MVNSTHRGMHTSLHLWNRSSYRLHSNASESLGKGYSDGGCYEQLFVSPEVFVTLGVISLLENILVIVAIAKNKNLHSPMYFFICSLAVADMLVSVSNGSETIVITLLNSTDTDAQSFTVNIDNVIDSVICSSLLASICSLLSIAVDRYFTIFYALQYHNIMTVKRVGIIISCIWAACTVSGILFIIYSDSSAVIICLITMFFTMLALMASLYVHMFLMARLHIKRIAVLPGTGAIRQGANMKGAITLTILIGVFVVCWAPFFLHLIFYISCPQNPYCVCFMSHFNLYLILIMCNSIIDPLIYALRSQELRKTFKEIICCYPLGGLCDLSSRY

Experiments:
[1] = target: L106P hMC4R (Homo sapiens, UniProt P32245, L106P); assay: cAMP based CRE/β-galactosidase reporter gene functional bioassay, L106P hMC4R
[2] = target: WT hMC4R (Homo sapiens, UniProt P32245)

EC50 [1]: 0.215 ± 0.083 µM | EC50 [2]: 0.0026 ± 0.0016 µM
SMILES: CC(=O)N[C@@H](Cc1cnc[nH]1)C(=O)N[C@H](Cc1ccccc1)C(=O)N[C@@H](CCCN=C(N)N)C(=O)N[C@@H](Cc1c[nH]c2ccccc12)C(N)=O [compound 1, Ac-His-DPhe-Arg-Trp-NH2]
